In PubChem BioAssay AID1625 (Sanford-Burnham Center for Chemical Genomics, 2009):
The entries are a selection whose mix differs from that of the whole data set. Active and inactive are the calls of the source.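 How the source made its calls: active means z-score above 3 at 5 µM with at least 500 cells counted in the well; inconclusive means wells under 500 cells, flagged as cytotoxic or low count; inactive means the rest.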

Assay: up-regulation of insulin promoter-GFP reporter – imaging, high-content screening, mouse beta cells (AID 1625)
Settings: MIN6 insulin promoter-GFP reporter, at 5 µM, hits give high values

Structure (SMILES) | z-score
CN(C(=O)Cc1ccc(Cl)c(Cl)c1)[C@@H]1CCCC[C@H]1N1CCCC1 | inactive: -0.01
CC(C)/C=N\N=C(\N)N[N+](=O)[O-] | inactive: -0.61
O=[As](O)(c1ccccc1Br)c1ccccc1Br | inactive: 0.05
CC(C)(C)C(=O)NC(Sc1ncccn1)C(Cl)(Cl)Cl (stereo unspecified) | inactive: 0.35
Clc1n[nH]nc1-c1nn[nH][15n]1 | inactive: 0.99
O=[N+]([O-])c1cc([N+](=O)[O-])c(-n2nnc3ccccc32)c([N+](=O)[O-])c1 | inactive: -0.06
O=P1(Nc2ccccn2)COc2ccccc2OC1 | inactive: 0.03
CCOP(=O)(Nc1ccc(C)cn1)OCC | inactive: -0.27
CCCOc1ccc(NP(C)(=O)Oc2ccc(Cl)cc2)cc1 (stereo unspecified) | inactive: 0.92
CP(=O)(Nc1ccc(SC(F)(F)F)cc1)Oc1ccccc1 (stereo unspecified) | inactive: 0.59
Nc1cccc([As](=O)(O)c2ccccc2)c1 | inactive: -0.21
O=[As](O)(c1cccs1)c1cccs1 | inactive: 0.56
Cc1ccc(OCC(=O)OC2CN3CCC2CC3)cc1 (stereo unspecified) | inactive: 1.15
O=P1(Nc2ccc(Br)cn2)COc2ccccc2OC1 | inactive: 0.16
CN1CCCCC1COC(=O)C1(O)c2ccccc2CCc2ccccc21 (stereo unspecified) | inactive: 0.41
COc1ccccc1OP(C)(=O)Nc1c(C)cccc1C (stereo unspecified) | inactive: -0.7
O=P1(Nc2ncccn2)COc2ccccc2OC1 | inactive: 2.07
CCOC(=O)C(CC)C1=NC(C)(C)Cc2ccccc21.O=[N+]([O-])c1cc([N+](=O)[O-])c(O)c([N+](=O)[O-])c1 (stereo unspecified) | inactive: -0.03
CN(C)C1(CNC(=O)c2ccc(S(C)(=O)=O)cc2)CCCCC1 | inactive: 0.6
O=[N+]([O-])c1cc([N+](=O)[O-])c(Nc2nnnn2CCO)c([N+](=O)[O-])c1 | inactive: -0.12
O=C(/C=C/c1ccccc1)OC1CN2CCC1CC2 (stereo unspecified) | inactive: 0.76
CC1CCC(C(C)C)C(OP(=O)(Nc2ccccn2)c2ccccc2)C1 (stereo unspecified) | inactive: 0.16
Cc1nn(-c2ccccc2)c2c1P(=O)(N1CCOCC1)N(C)C(c1ccccc1)=N2 (stereo unspecified) | inactive: -1.2
COc1cc(C2NCCC3(OCCO3)C2(C)C)cc(OC)c1OC.O=[N+]([O-])c1cc([N+](=O)[O-])c(O)c([N+](=O)[O-])c1 (stereo unspecified) | inactive: -0.31
CN(C(=O)Cc1ccccc1)[C@@H]1CC[C@]2(CCCO2)C[C@H]1N1CCCC1 | inactive: -0.36
CCOP1(=S)c2c(C)nn(CCC#N)c2N=C(c2ccc(F)cc2)N1C (stereo unspecified) | inactive: -0.46

Structure (SMILES) | z-score
CC1=NCCc2c1[nH]c1ccccc21.O=[N+]([O-])c1cc([N+](=O)[O-])c(O)c([N+](=O)[O-])c1 | inactive: 0.04
O=[N+]([O-])c1ccc2c(c1)nnn2O | inactive: 0.08
O=C(O)COc1ccc([As](=O)(O)O)cc1[N+](=O)[O-] | inactive: -1.14
Nc1ccccc1[As](=O)(O)c1ccccc1 | inactive: 0.18
O=P(Nc1nccs1)(c1ccccc1)c1nc2ccccc2s1 (stereo unspecified) | inactive: -0.45
O=C(O)c1cccc(Nc2c([N+](=O)[O-])cc([N+](=O)[O-])cc2[N+](=O)[O-])c1 | inactive: 0.41
CCOP1(=S)c2c(C)nn(CCC#N)c2N=C(c2ccccc2F)N1C (stereo unspecified) | inactive: -0.88
CS(=O)(=O)c1cc([N+](=O)[O-])c2no[n+]([O-])c2c1 | inactive: 1.11
CCOP(=O)(Nc1cccc2ccccc12)OCC | inactive: 0.2
Nc1cccc2c([As](=O)(O)O)cccc12 | inactive: -0.09
Cc1ccc(NCCc2c([N+](=O)[O-])cc([N+](=O)[O-])cc2[N+](=O)[O-])cc1 | inactive: -0.2
CP(=O)(Nc1cccc(Br)c1)Oc1ccccc1 (stereo unspecified) | active: 3.18
Cc1ccc(C)c(NP(C)(=O)Oc2ccccc2)c1 (stereo unspecified) | inactive: -0.06
CCCOP(=S)(Nc1nc(N)cc(=O)[nH]1)OCCC | inactive: 1.75
Cc1cc(C)cc(OP(C)(=O)Nc2ccc(C)cc2C)c1 (stereo unspecified) | inactive: 0.51
Cc1cccc(OCC(=O)OC2CN3CCC2CC3)c1 (stereo unspecified) | inactive: -0.37
O=[As](O)(c1cccc(O)c1)c1cccc(O)c1 | inactive: 0.8
CCOC(=O)c1ccc(NP(C)(=O)Oc2cc(C)cc(C)c2)cc1 (stereo unspecified) | inactive: -0.4
O=C(OC1CN2CCC1CC2)c1ccc(Cl)cc1 (stereo unspecified) | inactive: 1.1
COc1ccccc1OP(C)(=O)Nc1cccc(Br)c1 (stereo unspecified) | inactive: -0.03
O=[As](O)(O)c1cccnc1 | inactive: -0.11
COc1cc(C(=O)NCC2(N3CCOCC3)CCCCC2)cc(Cl)c1OC(C)C | inactive: 0.46
COc1ccc(N/C(=N/P(=O)(N2CCOCC2)N2CCOCC2)N2CCOCC2)cc1 | inactive: -0.27
COc1cc(I)ccc1[As](=O)(O)O | inactive: -0.14
COc1ccc2nc(NP(=O)(c3ccccc3)c3ccccc3)sc2c1 | inactive: -0.71
Cc1c2c(nc3ccccc13)SC(C(Cl)Cl)C2 (stereo unspecified) | inactive: 0.46

Structure (SMILES) | z-score
CCN(CC)CCCOC(=O)C(O)(c1ccccc1)c1ccccc1 | inactive: 0.03
Cc1cc(=O)[nH]c(N[N+](=O)[O-])n1 | inactive: 0.56
O=C(OC1CN2CCC1CC2)C12CC3CC(CC(C3)C1)C2 (stereo unspecified) | inactive: 0.51
COc1ccc(OP(C)(=O)Nc2cccc(F)c2)cc1 (stereo unspecified) | inactive: 0.46
O=[N+]([O-])c1cc([N+](=O)[O-])c(-c2ccn[nH]2)s1 | inactive: -1.73
CC(C)NC(=O)NP(=O)(Oc1ccccc1)Oc1ccccc1 | inactive: 0.54
COc1ccccc1OP(C)(=O)Nc1cc(Cl)ccc1C (stereo unspecified) | inactive: -0.38
Cc1cc(C)cc(OP(C)(N)=O)c1 (stereo unspecified) | inactive: 0.46
ClCCSc1nnc(-c2cccnc2)o1 | inactive: 0.67
CCOC(=O)c1ccc(NP(C)(=O)Oc2ccccc2)cc1 (stereo unspecified) | inactive: 0.56
CC(C)c1ccc(OP(=O)(Nc2ccccn2)Oc2ccccc2F)cc1 (stereo unspecified) | inactive: 0.39
Cc1ccc(NP(C)(=O)Oc2ccccc2)c(C)c1 (stereo unspecified) | inactive: 1.34
COc1ccccc1OP(C)(=O)Nc1ccc(C)cc1 (stereo unspecified) | inactive: 0.26
Cc1cccc(C)c1OP(C)(N)=O (stereo unspecified) | inactive: 0.62
Cc1ccc(OP(=O)(Nc2ccc([N+](=O)[O-])cn2)Oc2ccc(C)cc2)cc1 | inactive: 0.54
CC(C)(C)c1ccc(OP(C)(=O)Nc2ccc(SC(F)(F)F)cc2)cc1 (stereo unspecified) | inactive: -0.21
O=[N+]([O-])c1ccc2c(c1)C=Nc1ccccc1O2 | inactive: -0.2
Cc1ccc2nc3c(c(C)c2c1)CC(C(Cl)Cl)S3 (stereo unspecified) | inactive: -0.02
C[As](=O)(O)c1cccc(C(=O)O)c1 | inactive: 0.27
O=[As](O)(c1ccc(O)cc1)c1ccccc1O | inactive: -0.01
COc1ccccc1OP(C)(=O)Nc1ccccc1 (stereo unspecified) | inactive: 0.3
Cc1cc(SC(NC=O)C(Cl)(Cl)Cl)ncn1 (stereo unspecified) | inactive: 1.65
O=P(Nc1ccccn1)(c1cccc2ccccc12)c1cccc2ccccc12 | inactive: -0.05
O=[N+]([O-])c1ccc(Nc2ccc(Oc3ccc([N+](=O)[O-])cc3[N+](=O)[O-])cc2)c([N+](=O)[O-])c1 | inactive: -0.43
CP(=O)(Nc1ccccc1Br)Oc1ccccc1 (stereo unspecified) | inactive: 1.01
CP(=S)(Nn1cnnc1)Oc1ccccc1 (stereo unspecified) | inactive: -0.37

Structure (SMILES) | z-score
CCOC(=O)Nc1cccc([As](=O)(O)O)c1 | inactive: -0.38
Cc1cc(SC(NC(=O)c2ccccc2)C(Cl)(Cl)Cl)nc(C(C)C)n1 (stereo unspecified) | inactive: -0.38
CCOC(=O)Nc1ccc([As](=O)(O)O)c(O)c1 | inactive: 0.07
CCC(C)N(CC(C)C)C(=S)SC(NC(C)=O)C(Cl)(Cl)Cl (stereo unspecified) | inactive: 0.23
CP(=O)(Nc1ccccn1)Oc1ccc(Cl)cc1 (stereo unspecified) | inactive: 1.35
CCOP(C)(=S)SCC(=O)NC(C)C(=O)O (stereo unspecified) | inactive: -0.1
CCOC(=O)c1ccc(NP(C)(=O)Oc2ccc(OC)cc2)cc1 (stereo unspecified) | inactive: -0.04
CCOC(=O)c1ccc(NC(=O)C(C)(CCl)SC)cc1 (stereo unspecified) | inactive: 0.17
Cc1cc(C)cc(OP(C)(=O)Nc2ccc(SC(F)(F)F)cc2)c1 (stereo unspecified) | inactive: -0.49
CP(=O)(NC(=O)Nc1ccccc1)Oc1ccccc1 (stereo unspecified) | inactive: -0.26
O=C(COc1ccccc1)OC1CN2CCC1CC2 (stereo unspecified) | inactive: -0.74
CCc1ccc(OP(C)(=O)N2CCN(c3ccc([N+](=O)[O-])cc3)CC2)cc1 (stereo unspecified) | inactive: -0.32
CP(=O)(Oc1ccccc1)OC(c1ccccc1)C(F)(F)F (stereo unspecified) | inactive: -0.23
COP1(=S)c2c(C)nn(CCC#N)c2N=C(c2ccc(F)cc2)N1C (stereo unspecified) | inactive: 0.56
CP(=O)(Nc1ccc(SC(F)(F)F)cc1)Oc1ccc(Cl)cc1 (stereo unspecified) | inactive: -0.89
Cc1cccc(C)c1OP(C)(=O)Nc1ccc(SC(F)(F)F)cc1 (stereo unspecified) | inactive: -0.38
CC1CCN(C(=O)Oc2c(Cl)cc(Cl)c3cccnc23)CC1 | inactive: -0.04
CC(C)=N/N=C(\N)N[N+](=O)[O-] | inactive: 0.05
CN(C)C(=O)c1c([N+](=O)[O-])cc([N+](=O)[O-])cc1[N+](=O)[O-] | inactive: -0.1
CP(=O)(Nc1ccc(Cl)cc1)Oc1ccc(F)cc1 (stereo unspecified) | inactive: -0.33
CCN(/C(=N/P(=O)(N1CCOCC1)N1CCOCC1)N1CCOCC1)c1ccc(OC)cc1 | inactive: 0.2
C[N+]1=C2C=CC=CC=C2SC12C([N+](=O)[O-])=CC([N+](=O)[O-])=C[C-]2[N+](=O)[O-] (stereo unspecified) | inactive: -0.5
COc1ccccc1OP(C)(=O)Nc1ccccc1Br (stereo unspecified) | inactive: -0.14
